Biological target: T1, DNA repair protein RAD51 homolog 1 (Homo sapiens) (UniProt Q06609)
T1 sequence (whole entry): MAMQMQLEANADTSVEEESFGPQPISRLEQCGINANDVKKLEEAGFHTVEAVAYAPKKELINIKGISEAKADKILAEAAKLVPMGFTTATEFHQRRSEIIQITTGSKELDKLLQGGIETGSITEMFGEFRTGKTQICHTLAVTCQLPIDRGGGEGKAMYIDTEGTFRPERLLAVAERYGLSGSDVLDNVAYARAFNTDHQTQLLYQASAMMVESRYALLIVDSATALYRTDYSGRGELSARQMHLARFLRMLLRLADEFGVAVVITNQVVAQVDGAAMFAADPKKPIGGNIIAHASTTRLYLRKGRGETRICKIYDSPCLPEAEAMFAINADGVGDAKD
Assay: Inhibition of His-6 tagged human RAD51 mediated strand exchange at 1 to 2 uM relative to control
Conditions: dose 1-2 µM

`O=S(=O)(O)c1cc(N=C=S)ccc1/C=C/c1ccc(N=C=S)cc1S(=O)(=O)O` showed an inhibition of 50%.
